# Laboratory results as given in article PMC3032881 (Molecular Immunology, 2011).
# Target: T1, HLA A*0201 (soluble recombinant pMHCI) (Homo sapiens, UniProt P04439, D140Y/D185E/D98H/E176V/E277Q/G131W/G231S/I119V/I121R/I166T/I218V/L300P/L318F/N151K/N90K/P208A/P217A/Q86G/Q94H/R138H/R169H/T345S)
# T1 construct: made in house
# Assay: Real time SPR pMHC stability assay
# Assay type: binding
smiles,measurement,value
CC(C)C[C@H](NC(=O)[C@@H](N)Cc1ccc(O)cc1)C(=O)N[C@@H](CCC(=O)O)C(=O)N1CCC[C@H]1C(=O)NCC(=O)N1CCC[C@H]1C(=O)N[C@H](C(=O)N[C@@H](C)C(=O)O)C(C)C,Koff,330000 s⁻¹
